In US20100061996:

Molecular target: Lys-plasminogen (UniProt P00747)

## uPA (urokinase-type plasminogen activator), high molecular weight two-chain form
  initial rate of plasmin generation by uPAHepsin (plasminogen activation assay): 29.3±5.0 nM plasmin min^-1
  initial rate of plasmin generation by uPAPlasmin (plasminogen activation assay): 26.4±4.5 nM plasmin min^-1
